Literature values, collected in US20250197356A1, “METHOD FOR SYNTHESIZING NUCIFERINE OR DERIVATIVE THEREOF, DERIVATIVE OF NUCIFERINE AND USE THEREOF” (HUAQIAO UNIVERSITY, priority 2022, published 2025).

Settings: TCMSP database, screening threshold OB ≥30%; cited from earlier work

With `CC[C@H](CC[C@@H](C)[C@H]1CC[C@H]2[C@@H]3CC=C4C[C@@H](O)CC[C@]4(C)[C@H]3CC[C@]12C)C(C)C` [Sitosterol] as the compound, how does the “OB/% (oral bioavailability)” value read?
The value was 36.91%.
